Biological target: Recombinant human KAT6A protein (497-780) (Homo sapiens (Human), UniProt Q92794)
Experiment: KAT6A biochemical TR-FRET assay
Settings: histone H4 peptide 2000 nM, AcCoA 300 nM, enzyme 5 nM
Experimental: Enzymatic reactions of KAT6A and KAT6B were performed using Fluorescence Resonance Energy Transfer (TR-FRET) assay, which measures acetylation of a synthetic, biotinylated histone-H4 peptide by the KAT6A and KAT6B enzymes. Recombinant human KAT6A protein (497-780) were expressed in BL21 cell using an E. coli expression system. Recombinant human KAT6B protein (657-1069) was expressed in sf9 cell using a baculovirus expression system. Histone H4 peptide (SEQ ID NO: 1—[…]-GGK-Biotin), which was used as substrate, was synthesized by GL Biochem, Shanghai, China. Acetyl coenzyme A was purchased from Sigma-Aldrich (#A-2056).
Testing for the inhibition activities of various compounds disclosed herein was carried out at room temperature in assay buffer containing 100 mM Tris/HCl Ph7.8, 15 mM NaCl, 0.01% chicken egg white albumin, 1 mM DTT and 0.01% Tween-20. Compounds in DMSO were dispensed into wells of a black, 384-well plate (Corning 4514) using ECHO555 (Beckman). The final concentration ranges of the test compounds were 0.0625-1,000 nM, 0.625-10,000 nM, or 0.313-5,000 nM. […] TR-FRET was measured on a microplate reader (PHERAstar FSX, BMG labtech). The IC50s were calculated based on inhibition of enzyme activity in the presence of increasing concentrations of test compounds, and the results are shown in Table 6. […]

The chains behind the UniProt entries cited, without tags or fusion partners. Residues count along the entry.
UniProt Q92794, 497-780: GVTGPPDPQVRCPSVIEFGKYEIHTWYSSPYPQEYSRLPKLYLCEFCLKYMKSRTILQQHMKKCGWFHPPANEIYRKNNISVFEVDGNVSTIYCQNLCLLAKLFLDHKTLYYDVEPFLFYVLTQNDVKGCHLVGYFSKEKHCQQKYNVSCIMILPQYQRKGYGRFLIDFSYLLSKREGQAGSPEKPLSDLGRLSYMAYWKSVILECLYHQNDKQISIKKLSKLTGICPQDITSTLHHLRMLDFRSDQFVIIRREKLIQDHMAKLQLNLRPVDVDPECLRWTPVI

`COc1cccc(OC)c1S(=O)(=O)NC(=O)c1ccc(Cn2cccn2)c(OC)n1` [Example C69, 5-((1H-pyrazol-1-yl)methyl)-N-((2,6-dimethoxyphenyl)sulfonyl)-6-methoxy-picolinamide] was tested, and the IC50 was ≤ 5 nM.
